Reference: article PMC12915096, “AI‐Driven Acceleration of Fluorescence Probe Discovery” (Advanced Science, 2025)

Sequences of proteins named here, by UniProt entry; tags and fusion partners are left off.
UniProt Q13148, whole entry: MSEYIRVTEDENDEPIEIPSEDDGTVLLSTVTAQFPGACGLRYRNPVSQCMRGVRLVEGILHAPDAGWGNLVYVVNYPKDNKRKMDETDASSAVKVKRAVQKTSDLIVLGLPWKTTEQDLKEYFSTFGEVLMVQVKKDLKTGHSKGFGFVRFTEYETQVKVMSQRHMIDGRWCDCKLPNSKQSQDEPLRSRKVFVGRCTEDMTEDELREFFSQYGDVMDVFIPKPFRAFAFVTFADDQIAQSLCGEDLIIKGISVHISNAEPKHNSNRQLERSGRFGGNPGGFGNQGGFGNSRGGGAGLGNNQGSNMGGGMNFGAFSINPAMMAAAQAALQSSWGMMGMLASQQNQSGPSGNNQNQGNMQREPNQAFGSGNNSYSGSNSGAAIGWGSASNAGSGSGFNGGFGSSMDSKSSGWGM

Key:
TDP-43 = TDP-43 (Homo sapiens, UniProt Q13148); assay: Microscale thermophoresis (MST) assay; conditions: read-out: Dissociation constant Kd (TDP-43), MST; 50 nM labeled TDP-43, n = 3
Procedure: Microscale thermophoresis experiments were performed using a NanoTemper Monolith Instrument (NT.115). Purified TDP‐43 (Sangon Biotech, 0.9 mg/mL in Tris buffer) was labeled using the Monolith Protein Labeling Kit RED‐tris‐NTA (MO‐L018, Nanotemper, Germany) according to the manufacturer's instructions. For binding measurements, 50 nM labeled TDP‐43 was mixed with serially diluted concentrations of A5 in PBS‐T buffer. Samples were loaded into MST premium capillaries, and thermophoresis traces were recorded. Data analysis was performed by the MO Affinity Analysis software (Nanotemper), and the data was fit using the specific binding with Hill model in GraphPad 8.3.0.

TDP-43 aggregates = TDP-43 aggregates (Homo sapiens, UniProt Q13148); assay: Thioflavin T (ThT) assay; conditions: A5 20 µM, ThT 5 µM, 6 µM TDP-43 aggregates
Text: Application : Anti-TDP-43 Drug Screening by B3
Extended Data Figure 8: Drug screening applications of B3. a. Computational-experimental pipeline for
TDP-43 ligand discovery. Virtual screening of over 100,000 compounds against TDP-43 (PDB: 4Y00) yielded
5 candidate compounds, with probe B3 fluorescence assays confirming A5 as a novel ligand. Diagram of
the TDP-43-targeted drug screening workflow by combining computational methods and probe B3. Over
100,000 compounds were first screened by Computer-Aided Drug Design (CADD) with TDP-43 proteins
(PDB ID: 4Y00), resulting in 5 promising candidate ligands. Next, probe B3 was used as a fluorescence […]
of B3 fluorescence inhibition screening strategy. […]
aggregates (6µM) were incubated at room temperature for 1 h. The fluorescence intensity was measured and
B3 fluorescence inhibition rate was calculated relative to compound-free controls, the inhibition rate of B3
fluorescence signals was calculated and normalized relative to the control group (without compound). c. […]
fluorescence inhibition assay results.
maximal inhibition. […] Statistical significance was assessed using a one- […]
by standard binding assays. A5 (20µM) inhibited ThT (5µM) fluorescence when interacting with 6µM TDP-
43 aggregates. The data are the mean ± S.E.M., n = 3, statistical significance was assessed using a one-way […]

In the case of Cc1nc2c(Cl)cc(Cl)cc2c(=O)n1-c1cccc(C(F)(F)F)c1, the Kd (TDP-43) is reported as 445 nM and the “Inhibitory effect on TDP-43 aggregation (ThT fluorescence)” value (TDP-43 aggregates) is reported as “decreased ThT fluorescence signal”.
